For the experiment, the target named is recombinant human galectin 9 (human, UniProt O00182-2). The experiment in a line: SPR.

This is an account of results in PMC11403483 (The Journal of Biological Chemistry, 2024).

The Kd is the constant that tells how readily two partners part at equilibrium. In general, koff refers to the rate constant with which the complex falls apart. As usually defined, the kon is the rate constant with which the complex forms.

B1: recombinant human CD44 (receptor, UniProt P16070 21-220, looked up)
chain: QIDLNITCRFAGVFHVEKNGRYSISRTEAADLCKAFNSTLPTMAQMEKALSIGFETCRYGFIEGHVVIPRIHPNSICAANNTGVYILTSNTSQYDTYCFNASAPPEEDCTSVTDLPNAFDGPITITIVNRDGTRYVQKGEYRTNPEDIYPSNPTDDDVSSGSSSERSSTSGGYIFYTFSTVHPIPDEDSPWITDSTDRIP
As for B1, the Kd amounted to 10.5 nM, the koff was found to be 0.0015 s⁻¹ and the kon was 143000 M⁻¹ s⁻¹.
